Literature values as cited in patent US7208615B2, “Triple mineral salts of (-)-hydroxycitric acid and processes for preparing the same” (Laila Impex, priority 2004, dated 2007).

Conditions: background art (Singh et al., Biol. Memoirs 1995)

calcium salt of HCA
solubility in water: not very soluble in water
